Assay results: US10610591B2, “Light responsive quantum dot drug delivery system” (Nanoco Technologies Ltd., priority 2017, dated 2020)

Tested on: HER2 negative 4T1 cells
Experiment: binding of antibody conjugated QD to control HER2 negative cells
Type: cell-based
Procedure: In Eppendorf tubes, 1 mg carboxyl-functionalised, water-soluble QDs were mixed with 100 μl MES activation buffer (i.e. 25 μl of 40 mg/ml stock into 100 μl MES). The MES buffer was prepared as a 25 mM solution (2-(N-morpholino) ethanesulfonic acid hemisodium salt (MES), Sigma Aldrich) in deionized (DI) water, pH 4.5. To this was added 33 μl of a fresh EDC solution (30 mg/ml stock in DI water, 1-ethyl-3-(3-dimethylaminopropyl) carbodiimide hydrochloride (EDC), Fisher Scientific) and the solution was mixed. To this was added 4 μl of fresh sulfo-NHS (100 mg/ml stock, ThermoFisher Scientific, in DI water) and the solution was mixed. NanoSep 300K filters (PALL NanoSep 300K Omega ultrafilters) were pre-wetted in 100 MES. The MES/EDC/Sulfo-NHS/QD solution was added to the NanoSep 300K filter and topped up 500 μl with MES. The filter was centrifuged at 5000 rpm/15 min. The retained dots were re-dispersed in 50 μl activation buffer and transferred to an Eppendorf tube containing 10 μl of trastuzumab (Herceptin®, 100 mg/ml stock in a 25 mM solution of HEPES buffer, pH 8.5)+40 μl HEPES, pH 8.5. The solution was mixed well and incubated at RT overnight (around 16-18 hours). The solution was quenched with 16 μl of 6-amino caproic acid (6AC) (19.7 mg/100 mM). […]

## traztuzumab conjugated QD: carboxyl-functionalised water-soluble cadmium free QD covalently conjugated with trastuzumab (Herceptin®) by EDC/sulfo-NHS
  binding to control HER2 negative cells: without binding
